In US7759438B2, “Polymerization process for preparing (co)polymers” (dated 2010):
Like-named read-outs stand apart in the source and are kept apart here.

Columns and labels:
[1] = Half life of organic peroxide at the polymerization temperature; conditions: at the polymerization temperature of 57° C.
[2] = Solubility of organic peroxide in water at 0° C. (1H-NMR of water phase)

CC(C)C(=O)OOC(=O)C(C)C
half life [1]: 6 min
Solubility in water 0° C. [2]: 35 ppm

CCCCC(CC)COC(=O)OOC(=O)OCC(CC)CCCC (stereo not shown)
half life [1]: 144 min
Solubility in water 0° C. [2]: <1 ppm
Solubility in water 0° C. ([2]; listed as di(2-ethylhexyl) peroxy-dicarbonate): < 1 ppm

CCCCCCCCCCCC(=O)OOC(=O)C(C)C
half life [1]: 24 min
Solubility in water 0° C. [2]: 2 ppm
